{"source": "paper PMC7286788", "about": "(ACS infectious diseases, 2019)", "experiment": "Storage stability of lipid I", "conditions": "4 : 1 mixture of DMSO and 0.05M NaHCO3 at -20 °C", "data": [{"substance": "MurNAc(pentapeptide)-pyrophosphoryl prenol [Lipid I]", "values": [{"measurement": "Storage time without decomposition", "value": "over 8 months"}]}]}
